Laboratory results taken from US20250228858A1, “ANTI-CANCER COMBINATION THERAPY” (Boehringer Ingelheim International GmbH, priority 2023, published 2025).

Columns and labels:
[1] = test system: HER2-overexpressing human breast cancer cell line SUM190PT; type: in vivo
Description: The study is performed in human breast cancer cell line SUM190PT grown as subcutaneous xenografts in NMRI-Foxn1^nu mice. Day 1 was the first day, day 21 the last day of treatment and final day of analysis.
Cells are obtained and cultured as described in Example 8 (see paragraph 8.1.2).
Capecitabine can be purchased from Roche Pharma AG. Capecitabine is suspended with 0.5% Natrosol and administered intragastrally with a volume of 10 ml/kg.
Tumor volumes and side effects are monitored as described in Example 1 (see paragraph 1.1.6), except that control animals are sacrificed when the median tumor volume of the group reaches a size of approximately 540 mm^3.
(§1) The statistical evaluation of the tumor volume and the body weight is conducted on day 21 (last day of the study). Apart from this, statistical analysis was performed as described in Example 1 (see paragraph 1.1.7), with no evaluation of tumor growth after stop of treatment.

[2] = test system: HER2-overexpressing human NSCLC cell line Calu-3; test: Calu-3 subcutaneous xenograft, zongertinib with trastuzumab and/or pertuzumab; type: in vivo, CB-17/Icr-Prkdc^scid mice; settings: day 42; tumors regressed/total (partial response); zongertinib 20 mg/kg qdx42 p.o.; trastuzumab 20 mg/kg q7dx6 i.p.; pertuzumab 20 mg/kg q7dx6 i.p.; alone or combined
Description: The study is performed in human NSCLC cell line Calu-3 grown as subcutaneous xenografts in CB-17/Icr-Prkdc^scid mice.
Calu-3 is a HER2-overexpressing human NSCLC cell line that can be obtained from ATCC (lot 614492062). […] Cultures are split once weekly with a ratio of 1:1.5-1:2.
(§2) Mice in the control group are treated with vehicle, i.e.: • (i) 0.5% Natrosol, administered once daily for the duration of the treatment intragastrally by gavage needle with a volume of 10 ml/kg body weight; and • (ii) saline (0.9%), administered once every week intraperitoneally with a volume of 10 ml/kg.

[3] = test system: HER2-overexpressing human gastric cancer cell line NCI-N87; test: NCI-N87 subcutaneous xenograft, zongertinib with T-DXd; type: in vivo, NMRI-Foxn1^nu mice
Description: The study is performed in human gastric cancer cell line NCI-N87 grown as subcutaneous xenografts in NMRI-Foxn1^nu mice.
NCI-N87 is a HER2-overexpressing human gastric cancer cell line that can be obtained from the American Type Culture Collection (ATCC #CRL-5822). Cells are cultured in T175 tissue culture flasks at 37° C. and 5% CO2. The medium used is RPMI 1640 (ATCC #30-2001) supplemented with 10% fetal calf serum (FCS) (Thermo Scientific #SH 30084.03).
Mice are 6- to 10-week-old female NMRI-Foxn1^nu purchased from Taconic, Denmark. After arrival at the animal facility, mice are allowed to adjust to conditions at least for 5 days before they are used for the experiment. They are housed in Macrolon® type III cages in groups of 8 to 10 under pathogen-free, controlled and standardized conditions at 21.5±1.5° C. temperature, 55±10% humidity and 12-h light-dark cycle. Standardized diet (PROVIMI KLIBA) and autoclaved tap water are provided ad libitum. Subcutaneous microchips implanted under isoflurane anaesthesia are used to identify each mouse. […]
Tumor volumes are measured three times a week with a caliper. The volume of each tumor [in mm^3] is calculated according to the formula: […]
To monitor side effects of treatment, mice are inspected daily for abnormalities and body weight is determined three times a week. […]

[4] = test system: parental NCI-N87 cells; test: Proliferation assay (CellTiter Glo), parental NCI-N87 cells; type: cell-based, human; settings: 5 days of incubation, in vitro
Description: To generate T-DXd-resistant models, the NCI-N87 model is used and tumor-bearing mice are treated with three cycles of T-DXd, tumors that regrow are harvested and then tumor cells are cultivated in vitro, as shown in FIG. 17.
(§3) Per well, 1000 cells are seeded in 40 μL medium in white, sterile 384-well culture plates (TC-treated; PerkinElmer #6007680) and incubated overnight in a humidified incubator at 37° C. and 5% CO2. 0.1% DMSO-control or serial compound dilution in triplicates are added. T-DXd is diluted in 0.3% Tween solution and added to the cells. After 5 days of incubation with test compounds, the cells plates are measured upon addition of CellTiter Glo Luminescent Cell Viability Reagent (Promega, #G9243) to assess cell viability. The plates are placed on a shaker for five minutes and additionally incubated for 10 minutes at room temperature to induce cell lysis and to stabilize the luminescent signal. The luminescent signal of each well is measured in an EnSpire Multilabel Plate Reader 658 (PerkinElmer). The dose response curves are fit and visualized using Boehringer Ingelheim's proprietary software MegaLab and PRISM (GraphPad Inc.).

[5] = test system: T-DXd-resistant NCI-N87 cells; test: Proliferation assay (CellTiter Glo), T-DXd resistant NCI-N87 cells; type: cell-based, human; settings: 5 days of incubation, in vitro
Description: as §3, with “T-DXd is diluted in 0.3% Tween solution and added to the cells.” left out

[6] = test system: HER2-overexpressing human breast cancer cell line BT-474; type: in vivo; settings: alone or combined
Description: The study is performed in human breast cancer cell line BT-474 grown as orthotopic xenografts in NMRI-Foxn1^nu mice. Day 1 was the first day, day 42 the last day of treatment and final day of analysis.
BT-474 is a HER2-overexpressing human breast cancer cell line that can be obtained from ATCC (lot #61136823). Cells are cultured in T75, T175 and 5-Layer tissue culture flasks at 37° C. and 5% CO2. The medium used is Hybri-Care (ATCC, 46-X) supplemented with 1.5 g/L sodium bicarbonate (GIBCO, Ref.: 25080-060) and 10% FCS (Cytiva HyClone Characterized FBS, SH30084.03n). Cultures are split twice weekly with a ratio of 1:2-1:3.
To establish subcutaneous tumors, BT-474 cells are harvested by centrifugation, washed and resuspended in PBS+5% FCS at 5×10^7 cells/ml. […] cell suspension containing 5×10^6 cells is injected orthotopically into the right mammary fat pad of isoflurane anesthetized mice (1 site per mouse).
Pertuzumab can be purchased from Roche Pharma AG. Pertuzumab is diluted with saline (0.9%) and administered intraperitoneally with a volume of 10 ml/kg.
as §2, with “every 3 weeks intravenously into the tail vein with a volume of 5 ml/kg; and • (iii) saline (0.9%), administered once every” for “every”
Tumor volumes and side effects are monitored as described in Example 1 (see paragraph 1.1.6), except that control animals are sacrificed when the median tumor volume of the group reaches a size of approximately 470 mm^3.
The statistical evaluation of the tumor volume and the body weight is conducted on day 42 (last day of the study). Apart from this, statistical analysis was performed as described in Example 1 (see paragraph 1.1.7), with no evaluation of tumor growth after stop of treatment.

[7] = test system: HER2-overexpressing human breast cancer cell line HCC1954
Description: Day 1 was the first day, day 21 the last day of treatment and final day of analysis.
Cells are cultured in T75, T175 and 5-Layer tissue culture flasks at 37° C. and 5% CO2.
as §1

[8] = test system: HER2-overexpressing human ovarian cell line SK-OV-3; test: SK-OV-3 subcutaneous xenograft, zongertinib with T-DXd; type: in vivo, NMRI-Foxn1^nu mice; settings: day 20; tumors regressed/total (partial response); zongertinib 10 mg/kg qdx20 p.o.; T-DXd 7 mg/kg q21dx1 i.v.; alone or combined
Description: The study is performed in human ovarian cancer cell line SK-OV-3 grown as subcutaneous xenografts in NMRI-Foxn1^nu mice.
100 μl cell suspension containing 5×10^6 cells is injected subcutaneously into the right flank of mice (1 site per mouse).

Substance	Regressions >30% ([1]; day 21, tumors regressed/total (partial response), zongertinib 10 mg/kg qdx21 p.o., capecitabine 400 mg/kg qdx21 p.o., trastuzumab 20 mg/kg q7dx3 i.p., alone or combined)	TGI ([1]; day 21, zongertinib 10 mg/kg qdx21 p.o., capecitabine 400 mg/kg qdx21 p.o., trastuzumab 20 mg/kg q7dx3 i.p., alone or combined) [%]	tolerability, body weight compared to controls ([1]; treatment groups of Table 16)	effect on tumor growth (median tumor volumes over time) ([1]; zongertinib 10 mg/kg qdx21, capecitabine 400 mg/kg qdx21, trastuzumab 20 mg/kg q7dx3, alone or triple combination)	Regressions >30% [2]	TGI ([3]; day 22, zongertinib 20 mg/kg qdx21 p.o., T-DXd 3 mg/kg q21dx1 i.v., alone or combined) [%]	effect on tumor growth (median tumor volumes over time) ([3]; zongertinib 10 or 20 mg/kg/day, T-DXd 3 mg/kg once, 21-day experiment)	sensitivity (dose response, cell viability) [4]	sensitivity (dose response, cell viability) [5]	Regressions >30% ([6]; day 42, tumors regressed/total (partial response), zongertinib 10 mg/kg qdx42 p.o., T-DXd 1 mg/kg q21dx2 i.v., pertuzumab 20 mg/kg q7dx6 i.p.)	TGI ([6]; day 42, zongertinib 10 mg/kg qdx42 p.o., T-DXd 1 mg/kg q21dx2 i.v., pertuzumab 20 mg/kg q7dx6 i.p.) [%]	effect on tumor growth (median tumor volumes over time) ([6]; zongertinib 10 mg/kg qdx42, T-DXd 1 mg/kg q21dx2, pertuzumab 20 mg/kg q7dx6)	TGI ([7]; day 21, zongertinib 20 mg/kg qdx21 p.o., T-DXd 1 mg/kg q21dx1 i.v., pertuzumab 20 mg/kg q7dx3 i.p., alone or combined) [%]	tolerability, body weight gain compared to the controls ([7]; treatment groups of Table 24)	Regressions >30% ([7]; tumors regressed/total (partial response), zongertinib 20 mg/kg qdx21 p.o., T-DXd 1 mg/kg q21dx1 i.v., pertuzumab 20 mg/kg q7dx3 i.p., alone or combined)	Regressions >30% [8]
trastuzumab	0/8	−22	significant weight gain compared to controls	did not even slow down tumor growth	0/10											
trastuzumab deruxtecan [T-DXd, reference compound]						93	shrank tumors, but tumors started to regrow at the end of the 21-day experiment	sensitive	resistant	0/8	16	had a limited effect on tumor growth	84	statistically significant less body weight gain	0/8	0/8
